# pKd: −log10 of the molar value.
# Key:
# [1] = molecular target: CI-MPR on rat L6 myoblasts (rat); test: cell-based or functional assay
# [2] = molecular target: biotinylated, His-tagged recombinant wild-type CI-MPR domains 10-13 (1288FS) (Homo sapiens (Human)) (UniProt P11717); test: SPR (Biacore 3000); biotinylated CI-MPR Dom10-13 on SA chip, analyte in solution, steady-state affinity fit, I1572T mutant surface as reference
# [3] = molecular target: biotinylated, His-tagged recombinant wild-type CI-MPR domains 10-13 (1288FS) (Homo sapiens (Human)) (UniProt P11717); test: SPR (Biacore 3000); affinity relative to IGF-II
substance,measurement,setting,value
"wild-type, untagged GAA (ZC-635) (from UniProt P10253 28-952) (enzyme)",Kuptake (saturation curve for uptake into L6 Myoblasts),[1],354 nM
GILT-tagged GAA ZC-1026 (from UniProt P01344 32-91; P10253 70-952) (enzyme),pKd,[2],7.37
same,Relative Affinity,[3],0.6
GILT-tagged GAA ZC-701 (from UniProt P10253 70-952) (enzyme),Kuptake (saturation curve for uptake into L6 Myoblasts),[1],7 nM
same,Relative Affinity,[3],0.8
